Laboratory results as given in BindingDB's records for doi:10.1021/bi035098j (Merck Research Laboratories, 2003).

Experiments:
[1] = biological target: T1, Tyrosine-protein phosphatase non-receptor type 1 [1-298] (Homo sapiens, UniProt P18031); test: PTP1B and TCPTP Inhibition Assay; settings: pH 6.3; 22 °C
T1 construct: 1-298
T1 sequence (P18031 whole entry): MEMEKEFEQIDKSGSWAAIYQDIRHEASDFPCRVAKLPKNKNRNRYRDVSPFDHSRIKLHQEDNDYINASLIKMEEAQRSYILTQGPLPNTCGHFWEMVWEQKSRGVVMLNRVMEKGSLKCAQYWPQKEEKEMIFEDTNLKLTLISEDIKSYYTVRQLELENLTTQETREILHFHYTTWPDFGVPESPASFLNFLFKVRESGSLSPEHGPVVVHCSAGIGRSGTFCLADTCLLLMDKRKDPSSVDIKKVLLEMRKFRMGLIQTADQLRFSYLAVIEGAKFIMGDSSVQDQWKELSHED

[2] = biological target: T2, Tyrosine-protein phosphatase non-receptor type 2 (Homo sapiens, UniProt P17706); test: PTP1B and TCPTP Inhibition Assay; settings: pH 6.3; 22 °C
T2 sequence (P17706 whole entry): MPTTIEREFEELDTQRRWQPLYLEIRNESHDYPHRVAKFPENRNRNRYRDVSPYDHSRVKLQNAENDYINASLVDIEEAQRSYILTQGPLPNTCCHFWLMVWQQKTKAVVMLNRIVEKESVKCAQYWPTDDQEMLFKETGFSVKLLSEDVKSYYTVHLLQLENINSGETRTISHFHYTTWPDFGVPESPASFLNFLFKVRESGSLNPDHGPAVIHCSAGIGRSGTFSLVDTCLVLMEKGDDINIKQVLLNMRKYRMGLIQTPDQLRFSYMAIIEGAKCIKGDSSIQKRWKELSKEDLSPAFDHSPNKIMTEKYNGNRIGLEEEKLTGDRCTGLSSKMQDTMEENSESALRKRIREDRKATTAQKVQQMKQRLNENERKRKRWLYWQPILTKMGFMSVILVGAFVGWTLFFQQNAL

Row | SMILES | IC50 [1] | IC50 [2]
1 | O=P(O)(O)C(F)(F)c1ccc(CC(Cc2ccc(C(F)(F)P(=O)(O)O)cc2)(c2ccccc2)n2nnc3ccccc32)cc1 | 16 nM | 
2 | O=P(O)(O)c1cccc(-c2ccc(CC(Cc3ccc(C(F)(F)P(=O)(O)O)cc3)(c3ccccc3)n3nnc4ccccc43)cc2)c1 (stereo not drawn) | 3 nM | 3 nM
